## Antibody variant affinities, Ab-14 heavy chain, assay B

Values reported by Li et al. 2023, doi:10.1038/s41467-023-39022-2 (FLAb copy).

Target: peptide PDVDLGDISGINAS, taken from heptad repeat 2 (HR2) of SARS-CoV-2 spike.

Parent: Ab-14, a human scFv built as VH, a (GGGGS)3 linker, VL. Only the CDRs of the heavy chain vary.
VH: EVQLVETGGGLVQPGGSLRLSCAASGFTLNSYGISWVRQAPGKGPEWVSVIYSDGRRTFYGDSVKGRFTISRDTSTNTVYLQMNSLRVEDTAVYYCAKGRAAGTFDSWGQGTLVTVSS
VL: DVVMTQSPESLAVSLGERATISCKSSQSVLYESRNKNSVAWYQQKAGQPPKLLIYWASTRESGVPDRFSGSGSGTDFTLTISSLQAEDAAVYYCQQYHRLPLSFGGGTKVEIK

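Phage display of a naive human antibody library on the peptide gave the parent. This is the validation round: designs drawn from the data on random variants, tested in the same kind of assay. Group labels follow the data file (Ctrl: baseline library sampled from a position-specific scoring matrix, with some repeated check sequences; En: ensemble of fine-tuned language models; GP: Gaussian process model; GPLM: also part of the Gaussian process libraries; HC: hill climbing; Gen: genetic algorithm; Gibbs: Gibbs sampling; a sequence that several methods proposed may carry one label only). The assay is AlphaSeq: two haploid yeast populations carry antibody and antigen on their surface. Binding brings cells together so that they mate, and sequencing counts the barcode pairs among the diploids. Each replicate has its own calibration line, from reference interactions of the BCL2 family. Mating was done six times.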

Each variant's VH is given in full. Affinities are written as log10 Kd with Kd in nM; a lower number is a better binder. The mean shown is taken over the replicates in which the pair was detected. "nd" marks a missing value. The strain was present, yet no cells mated with the target were sequenced in any replicate, which points to weak or no binding. Entries are sorted by rising average, undetected variants last.

log10 Kd (nM), mean | seen in | empty controls | VH | group
-0.62 | 6 of 6 | 0 of 18 | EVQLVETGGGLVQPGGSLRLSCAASGFDLNEYGISWVRQAPGKGPEWVSVIYADGRRTAYTDSVKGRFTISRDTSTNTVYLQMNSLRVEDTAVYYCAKGNNAGTFDIWGQGTLVTVSS | En_Gen
-0.45 | 6 of 6 | 0 of 18 | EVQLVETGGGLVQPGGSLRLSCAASEFTLNSYGISWVRQAPGKGPEWVSVIYADGRRTFYGDSVKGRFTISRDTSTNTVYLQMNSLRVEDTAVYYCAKGRTAGTFDSWGQGTLVTVSS | GP_Gen
-0.33 | 6 of 6 | 0 of 18 | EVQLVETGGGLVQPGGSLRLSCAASGFDLNSYGISWVRQAPGKGPEWVSVIYSDGRRTFYGDSVKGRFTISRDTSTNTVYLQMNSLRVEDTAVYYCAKGRVAGTFDVWGQGTLVTVSS | GPLM_Gibbs
-0.28 | 6 of 6 | 0 of 18 | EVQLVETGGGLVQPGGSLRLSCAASGFTLNEYGISWVRQAPGKGPEWVSVIYSDGRRTAYGDSVKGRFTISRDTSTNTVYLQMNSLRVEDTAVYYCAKGRQAGTFDSWGQGTLVTVSS | Ctrl
-0.08 | 6 of 6 | 0 of 18 | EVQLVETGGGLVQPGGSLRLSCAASGFDLNEYGISWVRQAPGKGPEWVSVIYADGMRTSYADSVKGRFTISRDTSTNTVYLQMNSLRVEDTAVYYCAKGETAGTFDQWGQGTLVTVSS | En_Gen
-0.02 | 6 of 6 | 4 of 18 | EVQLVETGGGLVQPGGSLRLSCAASGFDLNMYGISWVRQAPGKGPEWVSVIYSDGRRTFYIDSVKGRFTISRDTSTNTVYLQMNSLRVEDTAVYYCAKGNAAGTFDSWGQGTLVTVSS | GP_Gibbs
0.30 | 6 of 6 | 0 of 18 | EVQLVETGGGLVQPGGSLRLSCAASGFDLNEYGISWVRQAPGKGPEWVSVIYADGRRTFYADSVKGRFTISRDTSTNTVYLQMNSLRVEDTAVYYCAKGQTAGTFDIWGQGTLVTVSS | En_HC
0.39 | 6 of 6 | 0 of 18 | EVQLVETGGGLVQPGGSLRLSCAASGFSLNEYGISWVRQAPGKGPEWVSVIYSDGRRTFYADSVKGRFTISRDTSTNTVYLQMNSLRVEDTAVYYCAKGTAAGTFDSWGQGTLVTVSS | GPLM_Gen
0.71 | 2 of 6 | 0 of 18 | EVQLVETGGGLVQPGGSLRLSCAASGFNLNSYGISWVRQAPGKGPEWVSVIYSDGRRTFYDDSVKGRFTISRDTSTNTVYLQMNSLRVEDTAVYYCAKGRLAGTFDSWGQGTLVTVSS | GP_HC
0.79 | 6 of 6 | 0 of 18 | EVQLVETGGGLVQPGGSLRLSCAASGFSLNSYGISWVRQAPGKGPEWVSVIYSDGRRTFYTDSVKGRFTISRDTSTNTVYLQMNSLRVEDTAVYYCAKGMFAGTFDSWGQGTLVTVSS | GP_HC
0.79 | 6 of 6 | 1 of 18 | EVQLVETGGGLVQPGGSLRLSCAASGFDLNSYGISWVRQAPGKGPEWVSVIYSDGRRTFYIDAVKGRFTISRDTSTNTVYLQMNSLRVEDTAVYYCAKGRQAGTFDSWGQGTLVTVSS | GP_Gibbs
1.26 | 6 of 6 | 0 of 18 | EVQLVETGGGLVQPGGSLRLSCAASGFTLNEYGISWVRQAPGKGPEWVSVIYSDGRRTFYGDQVKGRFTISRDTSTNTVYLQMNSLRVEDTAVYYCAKGRAAGRFVSWGQGTLVTVSS | Ctrl
1.45 | 6 of 6 | 0 of 18 | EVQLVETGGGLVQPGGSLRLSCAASGFTLDSYGISWVRQAPGKGPEWVSVIYSDGMRTFYGDSVKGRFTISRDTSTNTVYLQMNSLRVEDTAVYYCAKGRAAGTFDQWGQGTLVTVSS | GP_HC
1.53 | 3 of 6 | 0 of 18 | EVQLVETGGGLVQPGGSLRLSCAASGKDMQEYGISWVRQAPGKGPEWVSVIYADGSRAAYGDNFKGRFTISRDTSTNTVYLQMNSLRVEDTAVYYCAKGELAGTFDMWGQGTLVTVSS | En_Gibbs
1.60 | 2 of 6 | 0 of 18 | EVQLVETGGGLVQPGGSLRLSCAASGFSLNSYGISWVRQAPGKGPEWVSVIYSDGRRTFYCDRVKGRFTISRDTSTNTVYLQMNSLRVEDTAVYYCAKGEAAGTFDSWGQGTLVTVSS | GPLM_Gibbs
nd | 0 of 6 | 1 of 18 | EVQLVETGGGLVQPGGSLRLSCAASGFQLNSYGISWVRQAPGKGPEWVSVIYSDGRRTFYVDSVKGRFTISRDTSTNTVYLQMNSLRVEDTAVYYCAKGRQAGTFDTWGQGTLVTVSS | GP_Gibbs
nd | 0 of 6 | 0 of 18 | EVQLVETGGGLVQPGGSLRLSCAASGFDLNEYGISWVRQAPGKGPEWVSVIYADGHRTKYSNNVKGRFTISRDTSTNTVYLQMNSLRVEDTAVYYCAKGGQADIALLWGQGTLVTVSS | En_Gibbs
nd | 0 of 6 | 0 of 18 | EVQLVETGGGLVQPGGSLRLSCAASGFDIEEYGISWVRQAPGKGPEWVSVIYADGQRTMYKPTVKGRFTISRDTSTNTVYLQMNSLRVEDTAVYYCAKGNHTGLVDIWGQGTLVTVSS | En_Gibbs
nd | 0 of 6 | 0 of 18 | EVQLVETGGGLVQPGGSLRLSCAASGFTLNSYGYSWVRQAPGKGPEWVSVIYSDGRRTFYGDSVKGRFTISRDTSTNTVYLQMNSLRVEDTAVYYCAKGLAAGTFDSWGQGTLVTVSS | Ctrl
nd | 0 of 6 | 0 of 18 | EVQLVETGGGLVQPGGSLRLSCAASKFDLNSYGISWVRQAPGKGPEWVSVIYSDGRRTFYGDSVKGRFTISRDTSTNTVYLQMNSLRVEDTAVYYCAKGREAGTFDKWGQGTLVTVSS | GP_Gibbs

In the paper, a design with two or fewer of six values counts as a poor binder. A sequence measured in both rounds can read differently, since the two assays cover different ranges. Empty control strains, which show no peptide, gave a signal in 1% of pairings with all heavy chain designs; the median was 2.08 and 95% of these signals were weaker than 0.84. No background was subtracted. The control count says in how many pairings with the empty strains this scFv gave a signal.